{
  "source": "paper PMC9826610",
  "about": "(Journal of medicinal chemistry, 2022)",
  "tested_on": "sheep erythrocytes",
  "settings": "sheep erythrocyte CC50 versus S. aureus MIC",
  "data": [
    {"compound": "O=c1cc(C(F)(F)F)[nH]c2cc(C(F)(F)F)cc(Nc3ccc(C(F)(F)F)cn3)c12", "note": "[Compound 111, 5-[(5-Trifluoromethylpyridin-2-yl)amino]-2,7-bis-(trifluoromethyl)quinolin-4(1H)-one]", "values": [
      {"measurement": "therapeutic index (CC50/MIC), selectivity for S. aureus membranes over erythrocyte membranes", "result": "greater than 500"}
    ]}
  ]
}
